Experimental findings from ChEMBL document CHEMBL4814005, “Pragmatic recruitment of memantine as the capping group for the design of HDAC inhibitors: A preliminary attempt to unravel the enigma of glioblastoma” (Eur J Med Chem, 2021) are described below.

SMILES strings stand for the structures.

Experiment [1] is filed under the species Homo sapiens. The experiment in a line: Selectivity ratio of IC50 for human recombinant HDAC1 to IC50 for human recombinant HDAC6.
The species entered for experiment [2] is Homo sapiens. The experiment in a line: Selectivity ratio of IC50 for human recombinant HDAC3 to IC50 for human recombinant HDAC6.
The species named for experiment [3] is Homo sapiens. The experiment in a line: Selectivity ratio of IC50 for human recombinant HDAC8 to IC50 for human recombinant HDAC6.

As to `CC12CC3CC(C)(C1)CC(NCc1ccc(/C=C/C(=O)NO)cc1)(C3)C2`, the Selectivity ratio in the experiment listed under Homo sapiens [1] turned out to be 17.3; in the experiment listed under Homo sapiens [2], 36.5; in the experiment listed under Homo sapiens [3] it was 13.3.

Consider `CC12CC3CC(C)(C1)CC(NCc1ccc(NC(=O)CCCCCCC(=O)NO)cc1)(C3)C2`, for which the Selectivity ratio came to 64 in the experiment listed under Homo sapiens [1], 148 in the experiment filed under Homo sapiens [2] and 118 in the experiment filed under Homo sapiens [3].

`CC12CC3CC(C)(C1)CC(NC(=O)CCCCCC(=O)NO)(C3)C2`: the Selectivity ratio in the experiment listed under Homo sapiens [1] was found to be 78.2; in the experiment listed under Homo sapiens [3] it was 20.

Turning to `CC12CC3CC(C)(C1)CC(NC(=O)CCCCCCC(=O)NO)(C3)C2`, the Selectivity ratio in the experiment filed under Homo sapiens [1] stood at 12.3; in the experiment filed under Homo sapiens [2] it was 35; in the experiment filed under Homo sapiens [3] it was 2.3.

As for `CC12CC3CC(C)(C1)CC(NS(=O)(=O)c1ccc(/C=C/C(=O)NO)cc1)(C3)C2`, the Selectivity ratio in the experiment listed under Homo sapiens [1] amounted to 9.22; in the experiment filed under Homo sapiens [2], 10; in the experiment listed under Homo sapiens [3], 71.6.

Turning to `CC12CC3CC(C)(C1)CC(NCc1cccc(NC(=O)CCCCCCC(=O)NO)c1)(C3)C2`, the Selectivity ratio in the experiment filed under Homo sapiens [1] came to 11.1; in the experiment listed under Homo sapiens [2] it was 10.8; in the experiment filed under Homo sapiens [3] it was 11.5.

As to `CC12CC3CC(C)(C1)CC(NS(=O)(=O)c1cccc(/C=C/C(=O)NO)c1)(C3)C2`, the Selectivity ratio in the experiment listed under Homo sapiens [1] was 18.5; in the experiment filed under Homo sapiens [2], 30.8; in the experiment filed under Homo sapiens [3], 5.99.

For the compound `CC12CC3CC(C)(C1)CC(NCc1ccc(C(=O)NO)cc1)(C3)C2`, the Selectivity ratio in the experiment listed under Homo sapiens [3] was 2.6.

With `CC12CC3CC(C)(C1)CC(NCc1ccc(NCc4ccc(C(=O)NO)cc4)cc1)(C3)C2`, the Selectivity ratio in the experiment listed under Homo sapiens [3] stood at 199.

As to `CC12CC3CC(C)(C1)CC(NC(=O)CCCCCCCC(=O)NO)(C3)C2`, the Selectivity ratio in the experiment listed under Homo sapiens [1] worked out at 12.3; in the experiment filed under Homo sapiens [2], 18.2; in the experiment listed under Homo sapiens [3] it was 4.7.

On to `CC12CC3CC(C)(C1)CC(NC(=O)CCCCCCCCC(=O)NO)(C3)C2`, for which the Selectivity ratio was 19.4 in the experiment filed under Homo sapiens [1], 12.7 in the experiment filed under Homo sapiens [2] and 2.6 in the experiment listed under Homo sapiens [3].
